Data: article PMC7875674 (Journal of medicinal chemistry, 2020)

The chains behind the UniProt entries cited, without tags or fusion partners. Where a name states a change or a piece, a line headed by the entry shows the natural chain unless it says otherwise.
UniProt P05093: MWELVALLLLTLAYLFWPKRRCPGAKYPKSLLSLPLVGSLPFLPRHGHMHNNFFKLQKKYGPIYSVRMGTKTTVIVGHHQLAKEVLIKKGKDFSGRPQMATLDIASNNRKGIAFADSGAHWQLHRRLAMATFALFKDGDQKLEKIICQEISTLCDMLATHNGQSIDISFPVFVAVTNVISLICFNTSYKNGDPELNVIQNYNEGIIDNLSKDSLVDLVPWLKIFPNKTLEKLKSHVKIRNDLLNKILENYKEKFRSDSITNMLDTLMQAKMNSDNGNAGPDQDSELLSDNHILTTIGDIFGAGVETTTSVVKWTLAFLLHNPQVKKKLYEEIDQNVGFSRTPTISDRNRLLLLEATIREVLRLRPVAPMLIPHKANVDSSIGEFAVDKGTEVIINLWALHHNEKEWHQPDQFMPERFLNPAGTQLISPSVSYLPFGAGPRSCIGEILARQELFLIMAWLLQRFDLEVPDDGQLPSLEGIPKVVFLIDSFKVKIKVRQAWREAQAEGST

Target: P450 17A1 (Homo sapiens, UniProt P05093)
Assay type: binding

In the case of (R)-orteronel, the “stopped-flow rapid-scanning UV-visible binding spectroscopy with SVD global fitt” value was 73 ± 6 s⁻¹.
